From ChEMBL document CHEMBL5725562, “Substituted triazolopyridines and methods of use thereof” (2017)
Several values for one entry are separate records, joined by “and”; a condition that tells them apart may be missing. Equal values may be shown once.

Chains of the proteins cited; added tags and fusions are not shown.
UniProt Q15858, whole entry: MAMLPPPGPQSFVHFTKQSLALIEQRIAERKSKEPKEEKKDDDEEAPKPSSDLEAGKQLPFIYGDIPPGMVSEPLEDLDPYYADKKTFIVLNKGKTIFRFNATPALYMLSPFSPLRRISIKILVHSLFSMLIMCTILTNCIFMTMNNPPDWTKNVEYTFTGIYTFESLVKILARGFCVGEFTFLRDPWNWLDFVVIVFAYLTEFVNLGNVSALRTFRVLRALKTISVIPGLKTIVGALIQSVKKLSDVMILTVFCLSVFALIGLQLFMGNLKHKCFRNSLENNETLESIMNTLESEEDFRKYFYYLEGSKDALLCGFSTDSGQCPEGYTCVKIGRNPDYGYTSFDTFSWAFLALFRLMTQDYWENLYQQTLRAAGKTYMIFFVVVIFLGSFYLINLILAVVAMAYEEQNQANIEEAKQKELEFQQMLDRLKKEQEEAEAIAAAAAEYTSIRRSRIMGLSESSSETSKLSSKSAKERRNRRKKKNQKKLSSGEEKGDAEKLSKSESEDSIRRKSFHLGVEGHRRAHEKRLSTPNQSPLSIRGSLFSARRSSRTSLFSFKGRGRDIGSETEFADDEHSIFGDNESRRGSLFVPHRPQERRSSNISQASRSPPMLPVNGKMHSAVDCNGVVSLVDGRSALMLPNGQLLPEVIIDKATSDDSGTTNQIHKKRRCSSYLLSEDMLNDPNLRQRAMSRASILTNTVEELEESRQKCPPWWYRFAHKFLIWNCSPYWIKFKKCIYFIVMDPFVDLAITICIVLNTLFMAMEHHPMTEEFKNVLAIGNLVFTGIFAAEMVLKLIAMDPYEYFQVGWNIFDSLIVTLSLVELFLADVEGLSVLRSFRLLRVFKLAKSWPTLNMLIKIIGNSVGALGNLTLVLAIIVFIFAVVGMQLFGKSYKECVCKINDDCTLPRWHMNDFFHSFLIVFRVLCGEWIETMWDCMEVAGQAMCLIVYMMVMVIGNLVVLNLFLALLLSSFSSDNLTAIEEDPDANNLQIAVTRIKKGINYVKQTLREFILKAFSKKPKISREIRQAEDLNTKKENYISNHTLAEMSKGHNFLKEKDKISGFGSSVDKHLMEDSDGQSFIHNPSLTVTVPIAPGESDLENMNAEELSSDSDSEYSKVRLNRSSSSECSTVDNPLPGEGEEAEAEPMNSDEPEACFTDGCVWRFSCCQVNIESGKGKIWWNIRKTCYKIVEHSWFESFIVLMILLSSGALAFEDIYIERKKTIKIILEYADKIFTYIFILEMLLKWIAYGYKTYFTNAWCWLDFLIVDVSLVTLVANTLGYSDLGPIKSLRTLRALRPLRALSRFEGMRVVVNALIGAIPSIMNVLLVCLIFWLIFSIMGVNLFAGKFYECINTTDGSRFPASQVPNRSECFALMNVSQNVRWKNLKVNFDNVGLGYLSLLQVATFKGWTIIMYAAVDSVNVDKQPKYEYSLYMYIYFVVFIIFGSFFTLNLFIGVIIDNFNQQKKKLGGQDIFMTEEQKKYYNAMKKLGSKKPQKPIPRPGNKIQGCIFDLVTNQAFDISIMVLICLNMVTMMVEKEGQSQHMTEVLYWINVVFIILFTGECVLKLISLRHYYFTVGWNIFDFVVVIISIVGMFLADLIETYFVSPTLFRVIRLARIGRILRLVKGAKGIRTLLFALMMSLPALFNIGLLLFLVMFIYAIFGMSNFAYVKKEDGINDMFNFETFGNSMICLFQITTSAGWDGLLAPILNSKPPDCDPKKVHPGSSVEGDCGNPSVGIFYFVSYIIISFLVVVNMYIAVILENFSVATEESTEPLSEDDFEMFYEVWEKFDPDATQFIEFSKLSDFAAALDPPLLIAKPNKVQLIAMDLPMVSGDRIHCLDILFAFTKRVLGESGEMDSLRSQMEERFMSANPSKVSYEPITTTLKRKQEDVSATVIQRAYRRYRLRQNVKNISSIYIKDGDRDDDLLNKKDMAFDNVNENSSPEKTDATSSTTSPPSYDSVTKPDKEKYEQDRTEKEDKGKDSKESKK

Target: Sodium channel protein type 9 subunit alpha (Homo sapiens, UniProt Q15858)

Row | IC50 | SMILES
1 | 8.4 nM and 8 nM | O=S(=O)(Nc1nnc2cc(OCC34CC5CC(CC(C5)C3)C4)c(C3CC3)cn12)N1CCCC1
2 | 11.5 nM and 11 nM | O=S(=O)(Nc1nnc2cc(OCC3CC4C5CCC(C5)C4C3)c(C3CC3)cn12)N1CCC1 (configuration not stated)
